# Data taken from ChEMBL document CHEMBL5335795, “Development of potent isoflavone-based formyl peptide receptor 1 (FPR1) antagonists and their effects in gastric cancer cell models” (Eur J Med Chem, 2023).
# Activity calls are given as the source filed them. The rule behind the calls is not given here.
# Biological target: T1, N-formyl peptide receptor 2 (Homo sapiens) (UniProt P25090)
# T1 sequence (whole entry): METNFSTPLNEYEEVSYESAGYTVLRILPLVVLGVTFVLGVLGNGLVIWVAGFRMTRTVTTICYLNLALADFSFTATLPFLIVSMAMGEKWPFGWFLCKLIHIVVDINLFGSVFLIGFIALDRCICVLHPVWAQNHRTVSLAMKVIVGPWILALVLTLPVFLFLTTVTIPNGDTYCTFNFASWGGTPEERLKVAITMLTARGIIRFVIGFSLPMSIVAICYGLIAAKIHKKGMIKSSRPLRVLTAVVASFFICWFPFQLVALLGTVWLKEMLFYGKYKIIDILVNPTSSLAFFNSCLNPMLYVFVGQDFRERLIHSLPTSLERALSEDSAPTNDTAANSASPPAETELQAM
# Test: Antagonist activity against human FPR2 expressed in human HL-60 cells assessed as inhibition of WKYMVM-induced calcium mobilization preincubated for 10 mins followed by WKYMVM addition and measured every 5s for 240s by Fluo4AM dye based scanning fluorimetric analysis
# Format: functional, cell-based
# Details: time 840.0 sec
row,inhibition,Structure (SMILES)
1,inactive,CCCCCCc1cc2c(=O)c(-c3ccccc3OC)c(C)oc2cc1NC(C)=O
2,inactive,CCCCCCc1cc2c(=O)c(-c3ccccc3OC)c(C)oc2cc1OCC(F)F
3,inactive,CCCCCCc1cc2c(=O)c(-c3cccc(OC)c3)c(C)oc2cc1OC(C)=O
4,inactive,CCCCCCc1cc2c(=O)c(-c3ccccc3OC)c(C(F)(F)F)oc2cc1OC(C)=O
5,inactive,CCCc1cc2c(=O)c(-c3ccc(OC)cc3)c(C)oc2cc1OC(C)=O
6,inactive,CCCc1cc2c(=O)c(-c3ccccc3OC)c(C)oc2cc1OC(C)=O
7,inactive,CCCCCCc1cc2c(=O)c(-c3cccc(OC)c3)c(C)oc2cc1NC(C)=O
8,inactive,CCCc1cc2c(=O)c(-c3ccccc3OC)c(C)oc2cc1NC(C)=O
9,inactive,CCCCCCc1cc2c(=O)c(-c3ccc(OC)cc3)c(C(F)(F)F)oc2cc1OC(C)=O
10,inactive,CCCCCCC(=O)Oc1cc2oc(C)c(-c3ccc(OC)cc3)c(=O)c2cc1C
11,inactive,CCc1cc2c(=O)c(-c3ccccc3OC)c(C)oc2cc1OC(C)=O
12,inactive,CCCCCCc1cc2c(=O)c(-c3ccc(OC)cc3)c(C)oc2cc1OC(C)=O
13,inactive,CCCCCCc1cc2c(=O)c(-c3ccc(OC)cc3)c(C)oc2cc1NC(C)=O
14,inactive,CCCCCCC(=O)Oc1cc2oc(C)c(-c3ccccc3OC)c(=O)c2cc1C

row,Structure (SMILES),inhibition
1,CCCCCCc1cc2c(=O)c(-c3ccccc3OC)c(C)oc2cc1OC(C)=O,inactive
